Test results: PubChem BioAssay AID1778 (Sanford-Burnham Center for Chemical Genomics, 2009)
The other results are listed elsewhere or left out. Entries with a potency or affinity are not part of this list. Calls of active or inactive are those of the source. No stated cut-off is given here; in the data, active means inhibition above about 50%; inactive means the rest.

By UniProt entry, the sequences of proteins in these tests, tags left out. Where a name states a change or a piece, a line headed by the entry shows the natural chain unless it says otherwise.
UniProt P41145: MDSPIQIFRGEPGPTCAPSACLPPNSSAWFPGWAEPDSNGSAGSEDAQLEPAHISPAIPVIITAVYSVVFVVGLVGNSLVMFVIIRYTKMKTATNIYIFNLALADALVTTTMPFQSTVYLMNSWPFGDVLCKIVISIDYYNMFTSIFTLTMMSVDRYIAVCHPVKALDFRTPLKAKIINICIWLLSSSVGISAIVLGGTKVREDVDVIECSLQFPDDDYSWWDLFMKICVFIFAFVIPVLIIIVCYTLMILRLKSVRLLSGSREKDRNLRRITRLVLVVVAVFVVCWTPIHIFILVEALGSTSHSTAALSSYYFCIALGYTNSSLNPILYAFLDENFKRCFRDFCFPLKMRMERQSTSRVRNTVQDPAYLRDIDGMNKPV

What follows are compounds tested against Kappa-type opioid receptor (Homo sapiens) (UniProt P41145) (assay: kappa opioid receptor blockers – cell-based, luminescence, uHTS (AID 1778)). Details: KOR beta-arrestin recruitment, antagonist mode, at 10 µM, stronger effect = higher value.

Compound	inhibition
C=C(C)Cn1c(=O)c2c(nc3n2CCN3c2cccc(Cl)c2C)n(C)c1=O	inactive: 2%
CCN(CC)C(=S)SC(NC=O)C(Cl)(Cl)Cl (stereo unspecified)	inactive: 14.4%
O=C(Nc1nc2ccccc2n1CCN1CCOCC1)c1cn(-c2ccccc2)nc1-c1ccccc1	inactive: -30.6%
CC(C)NC(=O)NP(=O)(Oc1ccccc1)Oc1ccccc1	inactive: -22.9%
O=C(CCNC(=O)N1CCn2c1nc1ccccc12)NCc1ccc(F)cc1	inactive: -22.4%
CC1c2nc3ccccc3n2C(CC(=O)NCCCN2CCOCC2)C(=O)N1Cc1ccccc1 (stereo unspecified)	inactive: 1.6%
N=c1n(CCN2CCCCC2)c2ccccc2n1CC(=O)c1ccc(Cl)c(Cl)c1	inactive: -16.8%
COc1ccc(CCNC(=O)[C@@H](NC(=O)N2CCn3c2nc2ccccc23)C(C)C)cc1OC	inactive: -29.5%
O=C(Cn1c(-c2ccccn2)nc2ccccc21)NCCN1CCOCC1	inactive: -5.4%
O=[N+]([O-])c1cc([N+](=O)[O-])c(-c2ccn[nH]2)s1	inactive: 19.8%
Cn1c(=O)c2c(ncn2CC(=O)Nc2nc(-c3ccccc3Cl)cs2)n(C)c1=O	inactive: -11.2%
CCC(=O)Nc1cccc(C(=O)/C=C/c2ccc(F)cc2)c1	inactive: -21.6%
Cc1ccc(NC(=O)Cn2cnc3c(=O)n(C)c(=O)n(C)c32)c(C)c1	inactive: 26.8%
O=C(Cn1c(C(F)(F)F)nc2ccccc21)N1CCCC1	inactive: 11.8%
Cc1ccc(Cn2nnnc2CN2CCC(n3nnc4cc(C)ccc43)CC2)cc1	inactive: 16%
Cc1cccc(CSc2nc3ccncc3n2CC(=O)Nc2cc(C)cc(C)c2)c1	inactive: -7.4%
Cn1c(=O)c2c(nc(CN3CCC(Cc4ccccc4)CC3)n2CCN2CCOCC2)n(C)c1=O	inactive: -19.7%
CC1CCN(C(=O)Cn2cnc3c2c(=O)n(C)c(=O)n3C)c2ccccc2S1 (stereo unspecified)	inactive: -41.4%
C[C@H](NC(=O)N1CCn2c1nc1ccccc12)C(=O)NC1CC1	inactive: -8.8%
O=C(Nc1nc2ccccc2n1CCN1CCOCC1)c1ccc(Cn2cc([N+](=O)[O-])cn2)o1	inactive: -18.7%
N#Cc1ccc(NC(=O)Cn2c3[n+](c4ccc(C(F)(F)F)cc42)CCCCC3)cc1	inactive: 8.9%
CCC(C)[C@H](NC(=O)N1CCn2c1nc1ccccc12)C(=O)NCCc1ccc(OC)c(OC)c1 (stereo partly specified)	inactive: -23.9%
Cn1c(=O)n(CC(=O)Nc2ccc(F)cc2)c2ccccc21	inactive: 28.9%

Compound	inhibition
CCOC(=O)c1cccc(NC(=O)Cn2c(CC(=O)N3CCCC3)nc3ccccc32)c1	inactive: -19.9%
CC(C)N(C(=O)Cn1c(SCC(=O)N2CCN(c3ccccc3)CC2)nc2ccccc21)C(C)C	inactive: -18.7%
C/C(=N\NC(=O)Cn1c(-c2ccccn2)nc2ccccc21)c1cccc(O)c1	inactive: -10.5%
CCN1CCC(Nc2ccnc3cc(Cl)ccc23)CC1	inactive: 13.4%
CCOP1(=S)c2c(C)nn(CCC#N)c2N=C(c2ccccc2F)N1C (stereo unspecified)	inactive: -18.3%
O=P(Nc1nccs1)(c1ccccc1)c1nc2ccccc2s1 (stereo unspecified)	inactive: 7%
CCN(CC)CCn1c(C)nc2ccccc21	inactive: 7.9%
Cn1c(=O)c2c(ncn2CC(=O)N2CCN(S(=O)(=O)c3ccc(Cl)cc3)CC2)n(C)c1=O	inactive: -13.1%
O=P(Nc1nccs1)(Oc1ccccc1)Oc1ccccc1	inactive: 18.7%
Cc1ccccc1NC(=O)Cn1c(NCC(C)O)nc2ccccc21 (stereo unspecified)	inactive: 15.6%
CCc1nc2ccccc2n1CC(=O)Nc1cc(C)on1	inactive: -13%
CC(C)c1ccc(NC(=O)C2CC(=O)Nc3nc4ccccc4n32)cc1 (stereo unspecified)	inactive: -6.6%
CCN(Cc1ccccc1)C(=O)Cn1cnc2c1c(=O)n(C)c(=O)n2C	inactive: -22.9%
CCN(CC)CCn1c(=N)n(CC(O)COc2ccccc2)c2ccccc21 (stereo unspecified)	inactive: -0.2%
C[C@H](NC(=O)N1CCn2c1nc1ccccc12)C(=O)NCc1ccc2c(c1)OCO2	inactive: -11%
CS(=O)(=O)c1cc([N+](=O)[O-])c2no[n+]([O-])c2c1	inactive: 5%
Cc1ccc(/C=N\NC(=O)Cn2c(C)nc3ccccc32)o1	inactive: -5.3%
CCC(=O)NC(/C=C/c1ccccc1)c1cc([N+](=O)[O-])c2cccnc2c1O (stereo unspecified)	inactive: 26.9%
Cn1c(=O)c2c(ncn2CC(=O)Nc2ccc3c(c2)OCO3)n(C)c1=O	inactive: -14.2%
O=C1NCN(c2ccccc2)C12CCN(c1nnnn1-c1ccccc1)CC2	inactive: -3.8%
CN(C)C(=O)Cn1c(SCC(=O)N2CCCc3ccccc32)nc2ccccc21	inactive: -9.3%
COc1cccc(C(=O)CSc2nc3ccccc3n2CC(=O)N(C(C)C)C(C)C)c1	inactive: 4.6%
CC(C)Sc1nc2ccccc2n1CC(=O)NCc1ccc2c(c1)OCO2	inactive: 25.1%

Compound	inhibition
Cn1c(=O)n(Cc2ccc(F)cc2)c(=O)c2c1nc1n2CCN1Cc1ccco1	inactive: -15.2%
CCOC(=O)CNC(=S)N1CCn2c(nc3ccccc32)C1	inactive: 35.8%
O=C(Cn1c(-c2ccccn2)nc2ccccc21)N/N=C/c1cccnc1	inactive: 25.1%
Cc1nc2ccccc2n1CC(=O)NCc1ccccc1	inactive: -31.6%
CCOC(=O)C1CCN(C(=O)CC2C(=O)N(Cc3ccccc3)C(C)c3nc4ccccc4n32)CC1 (stereo unspecified)	active: 56%
O=C(C1CCN(S(=O)(=O)c2cnc[nH]2)CC1)N1CCn2c1nc1ccccc12	inactive: 9.8%
Cn1c(=O)c2c(ncn2CC(=O)N/N=C/C=C/c2ccco2)n(C)c1=O	inactive: 8.9%
Cn1c(=O)c2c(ncn2CC(=O)N/N=C/c2cn[nH]c2-c2ccc(F)cc2)n(C)c1=O	inactive: -18.1%
Fc1ccc2c(c1)nnn2C1CCN(Cc2nnnn2C2CCCCC2)CC1	inactive: -0.1%
COC(CNC(=O)CC1C(=O)N(Cc2ccccc2)C(C)c2nc3ccccc3n21)OC (stereo unspecified)	inactive: 1.5%
NNC(=O)Cn1c(COc2ccc(Cl)cc2)nc2ccccc21	inactive: -10.6%
N=c1n(CCN2CCOCC2)c2ccccc2n1CC(O)COc1ccccc1 (stereo unspecified)	inactive: -31.6%
Cc1ccc2c(c1)C1CN(C)CCC1N2C(=O)c1cn(-c2ccccc2)nc1-c1ccccc1 (stereo unspecified)	inactive: 4.6%
Nc1nonc1-c1nc2ccccc2n1CC(=O)N/N=C/c1ccc(-c2cccc(C(=O)O)c2)o1	inactive: -26.8%
CCOC(=O)c1ccccc1NC(=O)Cn1cnc2c1c(=O)n(C)c(=O)n2C	inactive: -2.4%
NC(=O)Cn1c(-c2nonc2N)nc2ccccc21	inactive: -14.4%
COCCN1CCn2c(nc3cc(NC(=O)NC4CCCCC4)ccc32)C1	inactive: 49.3%
O=C(Cn1cnc2ccccc21)N/N=C/c1ccc([N+](=O)[O-])cc1	inactive: 26.2%
O=C(O)COc1ccc([As](=O)(O)O)cc1[N+](=O)[O-]	inactive: 14.9%
Nc1ccccc1[As](=O)(O)c1ccccc1	inactive: 19.6%
Cc1nc2ccccc2n1C1CC(=O)N(N(C)C)C1=O (stereo unspecified)	inactive: -9.9%
CC(=O)Nc1nc2ccccc2n1CCN1CCOCC1	inactive: 9.2%
CCOC(=O)C1=C(Cn2cnc3ccccc32)NC(=O)NC1c1ccc(OC)cc1 (stereo unspecified)	inactive: -10.4%

Compound	inhibition
CC(=O)OCCNC(=O)Cn1cnc2c1c(=O)n(C)c(=O)n2C	inactive: 24.6%
Cc1cccc(C)c1NC(=O)Cn1cnc2c(=O)n(C)c(=O)n(C)c21	inactive: -23.7%
CCCCNC(=O)Cn1c(=O)n(C)c2ccccc21	inactive: 8.9%
NC(=O)Nc1ccc([As](=O)(O)O)cc1	inactive: 29.1%
Cn1c(=O)c2c(ncn2CC(=O)N(Cc2ccccc2)c2ccccn2)n(C)c1=O	inactive: 34.8%
CCN(CC)CCn1c(NCc2ccc(C)o2)nc2ccccc21	inactive: 5.6%
O=C(Nc1nc2ccccc2n1CCN1CCCC1)C1CCCCC1	inactive: 16.4%
COc1ccc(N2CCn3c2nc2c3c(=O)n(CCN3CCOCC3)c(=O)n2C)cc1	inactive: -29.4%
CCC(C)NC(=O)Cn1c(COc2ccc(Cl)cc2Cl)nc2ccccc21 (stereo unspecified)	inactive: 1.9%
CCC(C)[C@H](NC(=O)N1CCn2c1nc1ccccc12)C(=O)NCc1ccc(OC)cc1 (stereo partly specified)	inactive: 15%
Cn1c(=O)[nH]c(=O)c2c1ncn2CCN1CCOCC1	inactive: 14.6%
Cc1nn2c3ccccc3n(CCN3CCCCC3)c2nc1=O	inactive: 11.6%
FC(F)(F)c1ccc2c(c1)ncn2C1CCN(Cc2nnnn2C2CCCCC2)CC1	inactive: -25%
CC1Cc2ccccc2N1C(=O)CSc1nc2ccccc2n1CC(=O)N1CCOCC1 (stereo unspecified)	inactive: 21.4%
Nc1nc2ccccc2n1CCN1CCCC1	inactive: 18.8%
CC(C)NC(=S)N1CCn2c(nc3ccccc32)C1	inactive: 27.8%
O=C(CCCCCNC(=O)N1CCn2c1nc1ccccc12)NCc1ccc(Cl)cc1	inactive: -26.1%
COc1ccc(CNC(=O)[C@H](CCSC)NC(=O)N2CCn3c2nc2ccccc23)cc1	inactive: -13.7%
CCOC(=O)c1ccc(N2C(=O)CC(N3CCC(Nc4ccc(F)cc4)CC3)C2=O)cc1 (stereo unspecified)	inactive: 4.7%
O=C(Cn1cnc2ccccc21)N/N=C/c1ccccc1[N+](=O)[O-]	inactive: -3.2%
O=C(CSc1nc2ccccc2n1CC(=O)N1CCCC1)Nc1nccs1	inactive: 21.8%
O=C(Nc1ccccc1)N1CCn2c1nc1ccccc12	inactive: 22.2%
